Data from patent publication US20250092369A1, “METHOD FOR IMPROVING TRANSCYTOSIS PROPERTIES OF HUMAN BLOOD-BRAIN BARRIER MODEL” (Wisconsin Alumni Research Foundation, priority 2023, published 2025).

Tested on: gene-edited PB-TRE-N1ICD hPSC-EPCs
Assay: Fluorescent albumin accumulation assay in gene-edited PB-TRE-N1ICD hPSC-EPCs
Format: cell-based, human
Settings: PBS-treated 10(+CR2) cells, 30 min pretreatment: 3 mM MβCD, 20 µM CPZ or 2 μM rottlerin
Description: Fixable, Alexa Fluor 647-conjugated bovine serum albumin (BSA) (Invitrogen) was used as a substrate to estimate total fluid-phase endocytosis. D15 cultures of gene-edited PB-TRE-N1ICD hPSC-EPCs treated with 4 μM CHIR with or without 1 μg/mL doxycycline were pre-treated for 30 min at 37° C. with or without various endocytic pathway inhibitors (3 mM methyl-β-cyclodextrin [MβCD, Sigma-Aldrich], 20 µM chlorpromazine [CPZ, Sigma-Aldrich], or 2 μM rottlerin [Tocris]). Similarly, D6 cultures of HUVECs treated with GFP or N1ICD LV were pre-treated with or without 3 mM MβCD for 30 min at 37° C. Cells were washed once with sterile DPBS and then incubated in hECSR (for hPSC-EPCs) supplemented with 5 μg/mL BSA or 1:1000 diluted DPBS, 1:100 diluted CD144-FITC or FITC isotype control antibody, and 4 μM Hoechst 33342 (Life Technologies) or EGM-2 media (for HUVECs) supplemented with 5 μg/mL BSA or 1:1000 diluted DPBS and 4 μM Hoechst 33342 at 4° C. or 37° C. for 2 h on a rotating platform at 30 rpm, protected from light. Cells were then washed 3 times with 4° C. sterile DPBS to stop the assay and wash away any extracellular BSA. […]
Flow cytometry was used to quantify accumulated BSA fluorescence within cells. […] FITC emission was detected with a 530/30 filter and AlexaFluor 647 emission was detected with a 670/14 filter. Data were analyzed with Flow Jo software.

CN(C)CCCN1c2ccccc2Sc2ccc(Cl)cc21 [CPZ, chlorpromazine]
fluorescent albumin accumulation after endocytosis inhibitor pretreatment: reduced
